Values of other authors in publication PMC5412686 (Biopharmaceutics & Drug Disposition, 2017).

Settings: Humans, oral bioavailability; ref Supplemental Table S2; cited from earlier work

Compound: CCOC(=O)c1ncn2c1CN(C)C(=O)c1cc(F)ccc1-2 [Flumazenil]
- F: 0.22
